1 molecule from patent US20230257373A1, “QUORUM SENSING INHIBITORS AND METHODS OF USE” (priority 2020, published 2023) can be followed below.

This assay concerns PluxC-gfp reporter in V. campbellii. Nature of the assay: PluxC-gfp reporter in V. campbellii strains. Conditions: Vibrio campbellii, ATCC25920, read-out: Inhibition (IC50) of the PluxC-gfp reporter, Vcamp ATCC 25920.

For the molecule `O=S(=O)(c1ccc(Br)s1)n1cccc1` [Compound 3A, 1-((5-bromothiophen-2-yl)sulfonyl)-1H-pyrrole], the IC50 came out at 1100 nM.

Usually IC50 stands for the concentration needed to halve the response being measured.
